Source: patent US20200352886A1, “TREATMENT OF PAIN WITH TOPICAL DICLOFENAC” (priority 2009, published 2020)

Test system: subjects with primary osteoarthritis of the knee
Assay: 12-week randomized controlled trial: safety (adverse events, laboratory parameters, ocular examination)
Type: in vivo, human
Conditions: 12 weeks
Description: Study Design: Eligible subjects were stratified by the investigator at baseline into stratum 1 (no pain and normal radiological examination in the non-study knee) or stratum 2 (pain and/or abnormal radiological examination in the non-study knee), and then randomized into the trial by receiving the next numbered study kit at that clinic for that stratum. […] Subjects applied 40 drops of solution (approximately 1.2 mL) around the entire circumference of the study knee, without massage, 4 times daily, and took one study tablet daily for up to 12 weeks.
Each subject completed a full efficacy assessment questionnaire after randomization at baseline and at 4, 8 and 12 weeks, or at drop out. […] The POHA asked the question, “Considering all the ways your osteoarthritic (study) knee and its treatment affect you, including both positive and negative effects, how would you rate your overall state of health in the past 48 hours?” Secondary efficacy variables were WOMAC stiffness and patient global assessment (“PGA”) of knee osteoarthritis. The PGA asked the question, “How has the osteoarthritis in your study joint been over the last 48 hours?” The POHA and PGA were scored on a 5-point Likert scale. There was no assessment of the non-treated knee. […] Adverse events were categorized according to Coding Symbols for Thesaurus of Adverse Reaction Terms (“COSTART”). […]

For `O=C(O)Cc1ccccc1Nc1c(Cl)cccc1Cl` [ODiclo, diclofenac], the “Liver function tests abnormal” value was 12 (7.9) number (%) of subjects.
